Assay: chemical stability in solution (D2O, NMR)
Format: physicochemical

Substance	chemical stability in solution
7-(Phosphonooxymethoxy)-ursodeoxycholic acid tributylamine salt [compound 13a]	chemical instability
3-(Phosphonooxymethoxy)-ursodeoxycholic acid tributylamine salt [compound 16]	chemical instability
